# scFv variants of Ab-14 (heavy chain) against a SARS-CoV-2 spike peptide

Target peptide (SARS-CoV-2 spike, HR2 region): PDVDLGDISGINAS

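The variants were designed computationally from a first round of random CDR variants and then made and measured. Group labels follow the data file (En: ensemble of fine-tuned language models; HC: hill climbing; Gen: genetic algorithm; Gibbs: Gibbs sampling; a sequence that several methods proposed may carry one label only). AlphaSeq pools MATa yeast showing the antibodies with MATalpha yeast showing the peptide. Pairs that bind mate more often; barcode pairs of the diploids are counted by sequencing. Each replicate has its own calibration line, from reference interactions of the BCL2 family. Each pool was mated in six replicate cultures.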

Parent: Ab-14, a human scFv built as VH, the linker GGGGSGGGGSGGGGS, VL. Only the CDRs of the heavy chain vary.
VH: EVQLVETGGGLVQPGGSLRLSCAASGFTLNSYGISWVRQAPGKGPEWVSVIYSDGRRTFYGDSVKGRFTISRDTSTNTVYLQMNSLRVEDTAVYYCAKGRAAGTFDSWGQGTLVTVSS
VL: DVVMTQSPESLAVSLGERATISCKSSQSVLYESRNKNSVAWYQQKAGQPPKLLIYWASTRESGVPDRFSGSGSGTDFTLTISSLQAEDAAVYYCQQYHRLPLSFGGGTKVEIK

The parent's heavy chain CDRs are GFTLNSYGIS, VIYSDGRRTFYGDSVK, GRAAGTFDS; each variant's own CDRs replace them letter for letter.
This list holds designs with more than six substitutions.
Affinities are written as log10 Kd with Kd in nM; a lower number is a better binder.
Replicates are averaged; those with no signal do not enter the mean.
"nd" means that the variant was in the library but no mating with the target was seen in any replicate; the authors take this as a sign of poor binding, and no number exists.
Empty control strains, which show no peptide, gave a signal in 1% of pairings with all heavy chain designs; the median was 2.08 and 95% of these signals were weaker than 0.84. No background was subtracted. For each scFv, signals with the empty controls are counted beside the result.

Variant GFNLDEYGIS / VIYADGMRTAYADSVK / GEVAGTFDM [En_Gen] gave -0.23 (6 of 6 replicates; controls 1 of 18). With GFSLDEYGIS / VIYADGLRSKYADKVK / GELNQKGDT [En_Gibbs] the result was nd (0 of 6 replicates; controls 1 of 18). With KFDIEEYGIS / VIYADGKRTSYSNAVK / GNQGGTFNT [En_Gibbs] the result was -0.73 (5 of 6 replicates; controls 0 of 18). With GFDLNEYGIS / VIYADGSRTAYADSVK / GETAGTFDQ [En_Gen] the result was 0.99 (6 of 6 replicates; controls 1 of 18). With GKDLDEYGIS / VIYADGMRTFYLNTVK / GEDGFDLNQ [En_Gibbs] the result was nd (0 of 6 replicates; controls 0 of 18). Variant GFDLDEYGIS / VIYADGQRTVYADSVK / GQNAGTFDV [En_Gen] gave -0.41 (6 of 6 replicates; controls 0 of 18). For GFEIEEYGIS / VIYADGQRTSYADNVK / GKVDTVVMY [En_Gibbs], the assay gave nd (0 of 6 replicates; controls 0 of 18). With GFDLDEYGIS / VIYADGRRTFYIDSVK / GETAGTFDI [En_HC] the result was -0.35 (6 of 6 replicates; controls 1 of 18).

With GFDLVEYGIS / VIYADGIRTVVSNDVK / GNVAGTIFV [En_Gibbs] the result was nd (0 of 6 replicates; controls 0 of 18). For GFDLNEYGIS / VIYADGRRTFYADSVK / GETAGTFNS [En_HC], the assay gave -0.29 (6 of 6 replicates; controls 0 of 18). For GFDLNEYGIS / VIYADGRRTAYADDVK / GQNAGTFDI [En_Gen], the assay gave -0.33 (6 of 6 replicates; controls 0 of 18). With GFNLDEQGIS / VIYADGMRTVYSQNVK / GQNVEFTVF [En_Gibbs] the result was 0.42 (2 of 6 replicates; controls 0 of 18). For GFDLDEYGIS / VIYADGRRTFYSDSVK / GSNAGTFDV [En_HC], the assay gave 0.13 (6 of 6 replicates; controls 0 of 18). For GFDLNEYGIS / VIYADGSRTFYADSVK / GENAGTFDI [En_Gen], the assay gave -0.75 (6 of 6 replicates; controls 0 of 18). With GFDINEYGIS / VIYADGRRTQYADSVK / GEAAGTFDV [En_HC] the result was 0.11 (6 of 6 replicates; controls 0 of 18). Variant GFNLDEYGIS / VIYADGKRTFYADSVK / GEHAGTFDT [En_HC] gave 0.37 (6 of 6 replicates; controls 0 of 18).

Variant GFDLNEYGIS / VIYADGMRTYYADSVK / GQNAGTFDV [En_Gen] showed -0.59 (6 of 6 replicates; controls 1 of 18). With GQDLEEYGIS / VIYADGMRAAYANNVK / GVKGINVTI [En_Gibbs] the result was 1.65 (6 of 6 replicates; controls 0 of 18). Variant GYDLQDYGIS / VIYADGVRAFYHDSFK / GQLAGTFLL [En_Gibbs] gave 1.82 (1 of 6 replicates; controls 0 of 18). Variant GFDLNEYGIS / VIYADGRRTFYIDSVK / GETAGTFIM [En_HC] gave 0.91 (6 of 6 replicates; controls 0 of 18). Variant GEVLDEYGIS / VIYADGQRVQYTDNVK / GLLTGAFDM [En_Gibbs] showed nd (0 of 6 replicates; controls 0 of 18). For GFDLNEYGIS / VIYADGHRTFYSNNVK / GGQGGIGLS [En_Gibbs], the assay gave nd (0 of 6 replicates; controls 0 of 18). Variant GFDLNEYGIS / VIYADGRRTAYSDSVK / GEVAGTFDF [En_HC] gave -0.62 (6 of 6 replicates; controls 2 of 18). Variant GFDLNEQGIS / VIYADGVRTEYQNRVK / GQIDGSFTF [En_Gibbs] gave nd (0 of 6 replicates; controls 0 of 18).

For GFDLNEYGIS / VIYADGVRKAYADDVK / GNTAGTFDV [En_Gen], the assay gave -0.61 (6 of 6 replicates; controls 0 of 18). With GFSLGEYGIS / VIYADGVRQSYADKVK / GKNGAFSLV [En_Gibbs] the result was nd (0 of 6 replicates; controls 0 of 18). Variant GFDLNEYGIS / VIYADGRRTAYTDSVK / GANAGTFDQ [En_HC] gave 0.47 (6 of 6 replicates; controls 0 of 18). With GFDLNEYGIS / VIYADGKRTAYANSVK / GEVAGTFDT [En_Gen] the result was -0.21 (6 of 6 replicates; controls 0 of 18). Variant GKALDEYGIS / VIYADGKRTFYSNTVK / GEDGDFYDQ [En_Gibbs] gave nd (0 of 6 replicates; controls 0 of 18). Variant GFDLNEYGIS / VIYADGSRSYYVDNVK / GVMNIMMEV [En_Gibbs] showed nd (0 of 6 replicates; controls 0 of 18). Variant GFDLNEYGIS / VIYADGVRTFYADSVK / GEYAGTFDI [En_HC] showed 0.28 (6 of 6 replicates; controls 1 of 18). With GFDLNEYGIS / VIYADGMRTAYADDVK / GNNAGTFDV [En_Gen] the result was -0.49 (6 of 6 replicates; controls 0 of 18).

With GFDLNEYGIS / VIYADGVRTAYADDVK / GNEAGTFDL [En_Gen] the result was -0.35 (6 of 6 replicates; controls 1 of 18). For GFDLNEYGIS / VIYADGSRTAYADSVK / GGNAGTFDM [En_Gen], the assay gave 0.20 (6 of 6 replicates; controls 0 of 18). Variant GYSLDEYGIS / VIYADGVRQFYADDVK / GGIAGTFNY [En_Gibbs] showed 0.96 (6 of 6 replicates; controls 0 of 18). Variant GFDLNEYGIS / VIYADGMRTAYVDSVK / GTNAGTFDV [En_Gen] showed -0.33 (6 of 6 replicates; controls 0 of 18). For GFDLNEYGIS / VIYADGQRTAYANSVK / GEVAGTFDL [En_Gen], the assay gave -0.09 (6 of 6 replicates; controls 0 of 18). Variant GFDLDEYGIS / VIYADGRRTAYADSVK / GTLAGTFDA [En_HC] showed -0.63 (6 of 6 replicates; controls 0 of 18). With GFDLDEYGIS / VIYADGQRTFYADSVK / GEVAGTFDV [En_Gen] the result was -0.84 (6 of 6 replicates; controls 1 of 18). Variant GFDLNEYGIS / VIYADGMRTFYADSVK / GETAGTFDM [En_Gen] showed -0.78 (6 of 6 replicates; controls 0 of 18).

Variant GFKLNEYGIS / VIYADGQRVAYTDSFK / GTQAGMFFE [En_Gibbs] showed nd (0 of 6 replicates; controls 0 of 18). With GFDLNEYGIS / VIYADGMRTFYTDSVK / GEFAGTFDM [En_HC] the result was 1.17 (2 of 6 replicates; controls 0 of 18).

The authors' rule: three or more of the six replicates give a measured affinity, fewer mean a poor binder.
A sequence measured in both rounds can read differently, since the two assays cover different ranges.

Data: MIT Lincoln Laboratory AlphaSeq set, Li et al. 2023, doi:10.1038/s41467-023-39022-2, as distributed in FLAb.